Literature values as cited in patent US12552784B2, “1H-pyrrolo[2,3-b]pyridine derivatives as BCL-2 inhibitors for the treatment of neoplastic and autoimmune diseases” (priority 2019, dated 2026).

By UniProt entry, the sequences of proteins in these tests, tags left out.
UniProt P10415, whole entry: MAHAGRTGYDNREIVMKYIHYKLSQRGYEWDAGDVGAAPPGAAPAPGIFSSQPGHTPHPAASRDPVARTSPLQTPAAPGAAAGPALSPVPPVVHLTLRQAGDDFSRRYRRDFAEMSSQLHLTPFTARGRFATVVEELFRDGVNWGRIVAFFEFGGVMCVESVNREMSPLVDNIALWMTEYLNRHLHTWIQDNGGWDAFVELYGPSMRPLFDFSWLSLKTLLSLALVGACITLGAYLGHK
UniProt Q07820, whole entry: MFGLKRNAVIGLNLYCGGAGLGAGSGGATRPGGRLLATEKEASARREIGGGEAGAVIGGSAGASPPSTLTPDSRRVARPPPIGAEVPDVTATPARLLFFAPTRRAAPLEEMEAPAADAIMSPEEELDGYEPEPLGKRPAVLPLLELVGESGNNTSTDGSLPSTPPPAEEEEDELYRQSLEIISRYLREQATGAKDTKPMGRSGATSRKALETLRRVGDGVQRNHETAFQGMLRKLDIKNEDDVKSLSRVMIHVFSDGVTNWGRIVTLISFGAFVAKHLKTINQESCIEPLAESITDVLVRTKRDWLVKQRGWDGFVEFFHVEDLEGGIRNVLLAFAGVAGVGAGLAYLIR

Experiments:
[1] = molecular target: Bcl-2 (Homo sapiens, UniProt P10415)
[2] = molecular target: Mcl-1 (Homo sapiens, UniProt Q07820)

pKi [1]	Compound	activity to Mcl-1 [2]
≥ 9.00	CC1(C)CCC(c2ccc(Cl)cc2)=C(CN2CCN(c3ccc(C(=O)NS(=O)(=O)c4ccc(N[C@H](CCN5CCOCC5)CSc5ccccc5)c(S(=O)(=O)C(F)(F)F)c4)cc3)CC2)C1 [ABT-263]	
	CC1(C)CCC(CN2CCN(c3ccc(C(=O)NS(=O)(=O)c4ccc(NCC5CCOCC5)c([N+](=O)[O-])c4)c(Oc4cnc5[nH]ccc5c4)c3)CC2)=C(c2ccc(Cl)cc2)C1 [ABT-199]	no activity

pKi: −log10 of the molar value.
